Amino acid sequences for entries named in this document (tags omitted). A change or cut given only in a name is not applied to a line headed by its entry.
UniProt O94956: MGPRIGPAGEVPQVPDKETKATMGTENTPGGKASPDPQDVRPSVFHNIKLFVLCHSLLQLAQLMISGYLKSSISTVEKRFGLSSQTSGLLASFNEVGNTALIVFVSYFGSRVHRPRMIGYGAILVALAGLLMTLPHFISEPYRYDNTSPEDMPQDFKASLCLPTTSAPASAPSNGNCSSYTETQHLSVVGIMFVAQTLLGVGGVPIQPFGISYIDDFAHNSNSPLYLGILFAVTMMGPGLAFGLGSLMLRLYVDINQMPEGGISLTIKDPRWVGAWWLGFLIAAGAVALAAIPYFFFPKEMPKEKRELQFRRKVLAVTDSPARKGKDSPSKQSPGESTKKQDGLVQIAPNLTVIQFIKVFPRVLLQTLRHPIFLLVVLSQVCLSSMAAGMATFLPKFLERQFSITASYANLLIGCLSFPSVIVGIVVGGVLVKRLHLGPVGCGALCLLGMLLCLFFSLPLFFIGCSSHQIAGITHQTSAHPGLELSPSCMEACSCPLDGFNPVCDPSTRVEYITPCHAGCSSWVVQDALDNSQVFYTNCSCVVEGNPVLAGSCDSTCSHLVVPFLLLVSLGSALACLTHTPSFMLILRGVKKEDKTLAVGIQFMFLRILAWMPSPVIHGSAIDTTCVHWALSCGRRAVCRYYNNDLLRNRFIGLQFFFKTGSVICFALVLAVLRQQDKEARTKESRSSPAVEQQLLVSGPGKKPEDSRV

According to article PMC11124870, “Effect of Antioxidants in Medicinal Products on Intestinal Drug Transporters” (Pharmaceutics, 2024):

Biological target: OATP2B1 (Homo sapiens, UniProt O94956)
Assay: Uptake transporter assay, 3H-estrone sulfate uptake in HEK-293-OATP2B1 cells
Conditions: antioxidant 200 µM, uptake with DMSO set as 100%, mean ± SD, three replicates

C#Cc1cccc(Nc2ncnc3cc(OCCOC)c(OCCOC)cc23)c1 [Erlotinib, reference compound]
% Uptake of 3H-ES OATP2B1: 10.5 ± 2.8%
